The values that follow are results of earlier work, collected in US4079139A, “Flavone derivatives” (priority 1974, dated 1978).

In this data set the test system is toxicity of sodium Pentobarbital. As to conditions: cited from earlier work.

SMILES strings stand for the structures. Where two headings read alike, the source gives them in different places.

`O=C1C[C@@H]2OCC=C3CN4CC[C@]56c7ccccc7N1[C@H]5[C@H]2[C@H]3C[C@H]46` [strychnine]: the “effect on the toxicity of the barbiturate” value (background statement, in words) is recorded as “do not modify the toxicity of the barbiturate”.

In the case of `CN1[C@@H](CC(=O)c2ccccc2)CCC[C@H]1C[C@H](O)c1ccccc1` [lobeline], the “effect on the toxicity of the barbiturate” value (mouse, in vivo) was “raise the same”.
